Literature values, collected in patent publication US5389645A, “Substituted tyrosyl diamine amide compounds” (G. D. Searle & Co., priority 1992, dated 1995).

Test system: opioid receptors, designated μ, κ and δ
Conditions: cited from earlier work

## C=CCN1CC[C@]23c4c5ccc(O)c4O[C@H]2C(=O)CC[C@@]3(O)[C@H]1C5 [naloxone]
  binding affinity for all three categories of opioid receptors: bind with high affinity to all three categories of opioid receptors
